The record followed here is paper PMC7723054.

The other results are listed elsewhere or left out.

Common to all, as to test: FOREST: bead pull-down of RNA structure library v1, barcode microarray; U1A/LIN28A: 20 mM HEPES pH 7.5, 80 mM KCl, 20 mM NaCl, 10% glycerol, 2 mM DTT, 0.1 ug/uL BSA, 4 C; BG4/CIRBP/DHX36: 10 mM Tris-HCl pH 7.5, 100 mM KCl (or LiCl),; high values mean tight binding
The target in one assay is U1A (Homo sapiens, UniProt P09012).
For the next assay, the target named is T1, LIN28A (human?, UniProt Q9H9Z2 1-209).
T1 sequence: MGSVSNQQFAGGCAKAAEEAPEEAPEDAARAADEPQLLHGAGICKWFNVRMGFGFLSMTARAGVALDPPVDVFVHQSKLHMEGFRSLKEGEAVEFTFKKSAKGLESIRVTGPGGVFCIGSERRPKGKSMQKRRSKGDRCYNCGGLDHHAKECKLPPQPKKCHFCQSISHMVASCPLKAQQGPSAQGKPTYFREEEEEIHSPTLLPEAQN

A further assay deals with T2, CIRBP (Homo sapiens, UniProt Q14011 1-172).
T2 sequence: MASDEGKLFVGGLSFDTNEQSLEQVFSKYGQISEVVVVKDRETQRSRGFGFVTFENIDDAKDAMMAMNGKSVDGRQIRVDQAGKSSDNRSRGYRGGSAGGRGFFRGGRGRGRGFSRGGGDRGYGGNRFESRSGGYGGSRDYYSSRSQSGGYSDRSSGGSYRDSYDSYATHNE

The next assay deals with T3, DHX36 (Homo sapiens, UniProt Q9H2U1 1-1008).
T3 sequence: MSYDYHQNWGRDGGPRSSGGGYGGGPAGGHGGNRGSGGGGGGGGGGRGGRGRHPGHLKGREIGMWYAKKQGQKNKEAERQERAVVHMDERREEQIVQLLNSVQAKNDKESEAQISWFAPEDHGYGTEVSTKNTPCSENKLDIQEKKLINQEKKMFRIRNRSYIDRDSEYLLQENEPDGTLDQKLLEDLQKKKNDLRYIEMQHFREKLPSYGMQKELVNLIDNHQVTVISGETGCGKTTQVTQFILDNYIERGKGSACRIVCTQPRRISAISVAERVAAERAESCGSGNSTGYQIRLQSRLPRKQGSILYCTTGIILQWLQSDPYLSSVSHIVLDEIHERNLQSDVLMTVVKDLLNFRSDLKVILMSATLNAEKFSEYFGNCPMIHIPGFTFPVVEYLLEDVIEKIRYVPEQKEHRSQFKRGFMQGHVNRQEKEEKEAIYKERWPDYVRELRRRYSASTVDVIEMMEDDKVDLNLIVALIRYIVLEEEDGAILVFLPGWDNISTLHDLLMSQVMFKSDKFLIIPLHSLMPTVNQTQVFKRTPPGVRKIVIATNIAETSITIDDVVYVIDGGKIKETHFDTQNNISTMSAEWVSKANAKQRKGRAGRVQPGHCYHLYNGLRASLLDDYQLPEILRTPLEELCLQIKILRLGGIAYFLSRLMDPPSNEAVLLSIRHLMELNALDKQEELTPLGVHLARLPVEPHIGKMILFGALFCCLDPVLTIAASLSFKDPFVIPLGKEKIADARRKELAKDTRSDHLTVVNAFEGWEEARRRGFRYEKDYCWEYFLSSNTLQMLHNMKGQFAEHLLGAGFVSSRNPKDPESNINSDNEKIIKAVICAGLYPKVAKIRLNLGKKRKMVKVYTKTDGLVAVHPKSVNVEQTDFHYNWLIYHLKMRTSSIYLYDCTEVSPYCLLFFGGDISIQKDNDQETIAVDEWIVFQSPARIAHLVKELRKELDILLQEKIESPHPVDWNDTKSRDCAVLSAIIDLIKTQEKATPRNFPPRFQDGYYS

B1: hsa-mir-6760 (structured_RNA)
RNA: GGGACGGCGGGCCACUAUUAUAAGAGUUGGUGUACGAAGUUUCAGCCAGAGUGGGCUCACCUCUCGCCCACACUGGCUGAAGCUUCGUGCAC
On to B1, for which the binding signal in the assay with U1A is 1.33 z-score; in the assay with LIN28A it was -1.65 z-score; with CIRBP, -1.9 z-score; with DHX36, 0.07 z-score.

B2: hsa-mir-7848 (structured_RNA)
RNA: GGGACGGAAGUCUCGCUGCAACAUACCCGGUGUACGAAGUUUCAGCUAUGCAAAGCUCUGACAGUGUUUCACUUGCUAGCUGAAGCUUCGUGCAC
With B2, the binding signal with U1A was 1.29 z-score; with LIN28A, -1.07 z-score; with CIRBP, -0.465 z-score; with DHX36, -0.942 z-score.

B3: hsa-let-7e (structured_RNA)
RNA: GGGACAAGGUCUGUACGCCACAAGGACAGGUGUACGAAGUUUCAGCAUAGUUGAGGAGGACACCCAAGGAGAUCACUAUGCUGAAGCUUCGUGCAC
Turning to B3, the binding signal in the assay with U1A is 1.3 z-score; with LIN28A, 2.29 z-score; in the assay with CIRBP it was 0.901 z-score; with DHX36, 0.734 z-score.

B4: PARIS_ID23 (structured_RNA)
RNA: GGGAUCAAGCAUUGCCGUUCGAUCCGAUGGUGUACGAAGUUUCAGCGUAGUGAAGUCUGAGAUUUUACUACACCUUCCACUUAUGUGGUCCCACACCACCCGCCUCCCCUGCGCUGAAGCUUCGUGCAC
Consider B4, for which the binding signal is 2.65 z-score with U1A, -0.425 z-score with LIN28A, -1.81 z-score with CIRBP and -0.13 z-score with DHX36.

B5: hsa-mir-6881 (structured_RNA)
RNA: GGGACCAGGCGAACCUCAACCCAAUGAGGGUGUACGAAGUUUCAGCGGGUCAGGUCUGCAGCCUUGUAUCUGCUGAUCCGCUGAAGCUUCGUGCAC
Regarding B5, the binding signal with U1A was 1.32 z-score; with LIN28A it was -0.872 z-score; with CIRBP, -0.743 z-score; with DHX36 it was -0.731 z-score.

B6: hsa-mir-5695 (structured_RNA)
RNA: GGGAGAGCUAACGAGUUUCAGAAAGCACGGUGUACGAAGUUUCAGCGCCUCUCUGAGCAUGCAUUCCUGAGACUCGCUGAAGCUUCGUGCAC
As for B6, the binding signal with U1A was 1.3 z-score; with LIN28A, -0.374 z-score; with CIRBP, -0.00669 z-score; with DHX36, -0.381 z-score.

B7: hsa-mir-551b (structured_RNA)
RNA: GGGAAGUUGGUAAGAACCGACUGAACUCGGUGUACGAAGUUUCAGCUGAGACCUGGUGCAGAACGGGAAGGCGAGCUGAAGCUUCGUGCAC
In the case of B7, the binding signal is 1.31 z-score in the assay with U1A, 0.319 z-score with LIN28A, -0.311 z-score with CIRBP and -0.325 z-score in the assay with DHX36.

B8: hsa-mir-3150b (structured_RNA)
RNA: GGGACACGAGCUUGCCCGCGUAUUUACUGGUGUACGAAGUUUCAGCCCCAGCCUUGGCGUUCAGGUGCUGAGGCUGAAGCUUCGUGCAC
With B8, the binding signal with U1A was 1.33 z-score; in the assay with LIN28A, 0.549 z-score; with CIRBP it was -0.325 z-score; in the assay with DHX36 it was 0.288 z-score.

B9: hsa-mir-5588 (structured_RNA)
RNA: GGGAGAAACGAAAGUAAAACCUCAGGAUGGUGUACGAAGUUUCAGCACUUUUUUUUUUUUUUUUUUUAAUGUUAAAAGUGCUGAAGCUUCGUGCAC
With B9, the binding signal in the assay with U1A is 1.31 z-score; with LIN28A, -0.562 z-score; with CIRBP, 1.04 z-score; in the assay with DHX36 it was 0.281 z-score.

B10: PARIS_ID39 (structured_RNA)
RNA: GGGACACAGGAGGGACGUCUAUCUAAUCGGUGUACGAAGUUUCAGCAUAUUAACUUCUUAUAAUUUUCUUUUUUUUUCUUUAUGUGUGUGUGCUGAAGCUUCGUGCAC
B10: the binding signal turned out to be 1.33 z-score with U1A, 0.135 z-score in the assay with LIN28A, 1.52 z-score with CIRBP and 0.918 z-score with DHX36.

B11: hsa-mir-6780a (structured_RNA)
RNA: GGGAAGCGAGCAAUCCUACGUGGCUACGGGUGUACGAAGUUUCAGCGGAGAGUAUGGUCACAGCAGCAUCCUCCGCUGAAGCUUCGUGCAC
Turning to B11, the binding signal was found to be 1.3 z-score with U1A, 0.672 z-score with LIN28A, 0.608 z-score with CIRBP and 0.0197 z-score in the assay with DHX36.
